## Apparent affinities of Ab-14 variants for a coronavirus HR2 peptide

Values reported by Li et al. 2023, doi:10.1038/s41467-023-39022-2 (FLAb copy).

Target: peptide PDVDLGDISGINAS, taken from heptad repeat 2 (HR2) of SARS-CoV-2 spike.

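The starting antibody came from a phage panning campaign against this peptide. This is the validation round: designs drawn from the data on random variants, tested in the same kind of assay. Their group label is 14L_En_HC (En: ensemble of fine-tuned language models; HC: hill climbing; a sequence that several methods proposed may carry one label only). In AlphaSeq, yeast of one mating type display the scFv and yeast of the other type display the target. Binding brings cells together so that they mate, and sequencing counts the barcode pairs among the diploids. A regression on co-assayed BCL2-family reference pairs converts the normalised counts of each replicate to an apparent Kd. There are six technical replicates.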

Each scFv is VH, the linker GGGGSGGGGSGGGGS, VL, as in the parent Ab-14, and differs from it in the CDRs of the light chain only.
VH: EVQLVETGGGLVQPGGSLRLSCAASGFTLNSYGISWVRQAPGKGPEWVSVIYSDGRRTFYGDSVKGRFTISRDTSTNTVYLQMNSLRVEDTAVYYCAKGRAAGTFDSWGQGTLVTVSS
VL: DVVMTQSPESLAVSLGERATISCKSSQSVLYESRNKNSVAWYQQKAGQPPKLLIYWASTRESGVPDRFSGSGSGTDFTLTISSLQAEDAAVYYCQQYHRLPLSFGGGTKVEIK

Variants are written as CDR1, CDR2 and CDR3 of the light chain (limits as in the source). Parent: KSSQSVLYESRNKNSVA, WASTRES, QQYHRLPLS.
Affinities are written as log10 Kd with Kd in nM; a lower number is a better binder.
Replicates are averaged; those with no signal do not enter the mean.
Where no diploid with the target was found in that replicate, the entry reads "ND": below detection, most likely a poor binder, though not proof of it.
The parent sequence was in this pool as ten entries: three were never detected, three once, and four in most replicates, with averages from 0.34 to 2.37.
The authors' rule: three or more of the six replicates give a measured affinity, fewer mean a poor binder.
Background: pairings of all light chain designs with three empty control strains gave a value in 4% of cases (median 2.64, 5th percentile 1.59). Values in that range, when seen in few replicates, are hard to tell from nonspecific mating. The control count says in how many pairings with the empty strains this scFv gave a signal, with their mean in brackets.
Values of this round are not directly comparable with the first-round values of the same sequences.

CDR-L1	CDR-L2	CDR-L3	replicates, log10 nM	mean log10 Kd (nM)	control signals
TISQSWLIESRNKNNVA	EMSTREN	QDYDRLPLS	-0.07 -0.37 -0.51 0.51 0.28 -0.05	-0.04	1/18 (0.48)
IISQVDSYLSRNTNSIA	DQSTRGS	QQYDRLPLS	0.83 0.53 0.49 0.50 0.60 0.60	0.60	0/18
KISQMYRYEQQNHSSIA	EANTRLQ	QSYHRLPLS	ND 0.74 1.75 1.92 1.45 1.47	1.47	1/18 (1.96)
TLSQTTDLESVHKNSIA	DLMTRES	QQYHRLPLS	0.38 -0.01 -0.03 -0.21 0.05 0.30	0.08	1/18 (1.77)
HSSPSVLYESRNKNSVA	NASTRER	QQYHRLPLS	0.73 0.36 0.32 0.49 0.16 0.56	0.44	1/18 (1.71)
HISPSFMVESRLKNSVA	QTETRVS	QQYDRLPLS	0.43 0.13 0.19 0.02 0.05 0.54	0.23	0/18
TLGGVTSYEMQNKNSVA	QMTTRES	QQYHRLPLS	0.38 0.11 0.60 0.20 0.66 0.15	0.35	0/18
MLLQQTMYGERNRNSVA	HASTRED	QQYHRLPLI	1.47 1.23 1.91 2.02 1.87 1.67	1.69	0/18
KISMLYNFQSTNKNSIA	EMTTRES	QHYHRLPLS	ND ND ND ND ND ND	ND	0/18
TLSGVMDMTSRNVNSVA	DLTTRGN	QQYHRLPLS	0.55 0.39 0.20 0.10 0.38 0.36	0.33	0/18
TLTQSVLMESHNKNNVA	DLSTRGS	QQYHRLPLS	0.02 -0.14 -0.23 -0.30 -0.15 0.02	-0.13	0/18
ILYETVGTLSRNKNSVA	DNSTRES	QQYDRLPLS	ND ND ND ND 2.37 2.20	2.29	0/18
MFSQLTYTGSRARNAVA	QASTREN	QQYHHLPLT	1.10 1.18 1.04 1.07 1.00 1.15	1.09	1/18 (2.50)
KISGLYNFAQTNKNSIA	EMTTRTS	QHYHRLPLS	0.54 0.60 0.98 0.82 1.32 1.43	0.95	1/18 (2.02)
KISFQYRYEQLSKNSIA	EVVTRLK	QQYHRLPLS	1.73 1.36 0.74 1.98 1.34 0.66	1.30	0/18
ILSQMLLTAGNKHNSVA	QANNREE	QQYHRLPLS	1.29 0.92 0.83 1.08 1.18 1.12	1.07	2/18 (3.18)
MISDLTMYGSRNVNSVA	DLSTRGR	QQYHRLPLS	0.52 1.28 1.26 0.91 0.94 1.88	1.13	1/18 (2.07)
NVGQLMDGMTRNRNNVA	HQSTRED	QHYHRLPLS	0.31 0.50 0.34 0.01 0.56 0.44	0.36	1/18 (2.56)
KFGQMVLTGMYVSNSVA	QSSTREN	QQYHRLPLS	1.32 0.36 0.99 0.27 1.20 0.87	0.83	0/18
KLGQMTAIESENLNSVA	QMDTRES	QQYHRLPLS	ND ND ND 1.77 2.30 1.97	2.01	0/18
TISTSMRYESSLKNAIA	NAQTREP	QQYHRLPIS	0.71 0.90 0.27 0.74 1.62 1.41	0.94	0/18
TIGQMFNGESRARNSVA	QASTRES	QSYDRLPLS	0.65 0.45 0.83 0.46 0.82 0.70	0.65	2/18 (1.84)
KISQLVNFEGKNKNSVA	QMSTREV	QQYDRLPLS	0.46 0.16 0.09 -0.32 0.09 0.67	0.19	2/18 (3.65)
TLTQVQGMESHQKNSVA	DLSTRGS	QQYHRLPLS	-0.36 -0.12 -0.33 -0.48 -0.31 0.01	-0.26	0/18
TLSDLMYMESRNYNSVA	DLVKRED	QQYHRLPLS	-0.30 -0.46 -0.14 -0.20 -0.14 -0.43	-0.28	0/18
ILYDSVLTLSRNKNSVA	DNSTRES	QQYDRLPLS	ND 1.82 1.89 ND 2.57 2.03	2.08	0/18
TISQSAQQESHKKNSVA	DLSVRGS	QQYDRLPLS	1.50 1.09 0.40 1.14 1.85 2.20	1.36	0/18
KLGQSVAMTSRQKNNVA	DLNERER	QQYHRLPLS	ND ND ND ND ND ND	ND	0/18
MIAESVGYQSRNKNSVA	DNSTREQ	QCYDRLPLS	ND ND ND ND ND ND	ND	0/18
ILYESVGTLSRNKNSVA	DNSTREK	QQYDRLPLS	ND ND ND 2.38 ND 2.37	2.38	1/18 (2.30)
KIGLVTNGISFSKNSVA	EQSTREN	QQYDRLPLS	ND ND ND ND 2.04 ND	2.04	0/18
TISQSINMTSRGKNSVA	QAEMRES	QQYDRLPLS	1.31 1.02 1.12 0.80 1.02 1.18	1.08	1/18 (3.05)
KITGMWTFESRNKNSIA	EVSTRPS	QSYHRLPLS	0.66 0.60 0.57 0.51 0.67 0.67	0.61	0/18
TLSGLMDMTSKNVNSVA	DLTTRGN	QQYHRLPLS	0.17 0.02 -0.01 -0.05 0.01 0.23	0.06	0/18
MFSQSVMTGSFYRNSVA	QTSTREK	QQYDRLPLS	0.15 0.24 -0.14 -0.26 0.56 0.12	0.11	0/18
KLSVSMLLESFHKNNVA	ENSTREE	QHYHRLPLS	2.22 2.01 2.50 1.88 2.05 1.61	2.04	1/18 (2.46)
TLSHSTDLESVHKNSIA	DLMTRES	QQYHRLPLS	0.56 0.15 0.09 0.13 0.68 0.20	0.30	1/18 (2.11)
TISQSFMMENQFKNSVA	QASTREN	QCYDRLPLS	0.25 0.60 0.25 -0.10 -0.20 0.18	0.16	0/18
KLREVQHVESKQKGNVA	DNSTRES	QDYYRLPLS	1.54 3.20 1.28 ND 1.72 2.17	1.98	1/18 (2.06)
TIGQMFNGESRIRNSVA	QASTREE	QSYDRLPLA	1.23 1.38 0.88 0.59 0.89 1.43	1.07	0/18
MLLQATMYGERQRNSVA	HASTRED	QQYHRLPLI	2.64 2.07 2.56 2.04 1.31 2.15	2.13	1/18 (2.03)
KLYMSTGYESRNMDSIA	DNSTRGR	QQYHRLPLS	1.18 1.17 1.42 0.90 1.32 1.18	1.20	0/18
TVSQVHEMLSRNKNSVA	DVNTRES	QQYDRLPLS	0.63 0.23 0.37 0.20 0.45 0.52	0.40	1/18 (2.66)
TIGQMFNGESRMRNSVA	QASTRES	QSYDRLPLS	1.79 1.35 1.69 1.16 1.33 1.38	1.45	0/18
KLYHMTGIESHAKNSLA	DANRRED	QQYHRLPLS	0.19 0.51 0.21 0.11 0.19 0.21	0.24	0/18
KLLQSVNYGSRALNSVA	QMETRED	QQYHRLPLS	0.94 0.88 0.78 0.56 0.48 0.66	0.72	0/18
KIIQSVAMSSRNKDSIA	DNSTRES	QQYHRLPLS	2.37 1.37 1.25 1.14 1.14 1.48	1.46	2/18 (3.19)
MISDTVMQGSYSRNSVA	QESTRAE	QQYHHLPLS	0.49 0.26 0.34 0.19 0.31 0.71	0.38	0/18
KLSMSMLMESRNKQSVA	ENSTRES	QHYHRLPLS	ND ND ND ND ND ND	ND	0/18
HISQSVGMTQFNKNSVA	ENSTREN	QQYDRLPLS	ND 2.35 1.56 ND ND 3.58	2.50	0/18

Repeated from above, the 3 best binders with a signal in all replicates:

| CDR-L1 | CDR-L2 | CDR-L3 | replicates, log10 nM | mean log10 Kd (nM) | control signals |
|---|---|---|---|---|---|
| TLSDLMYMESRNYNSVA | DLVKRED | QQYHRLPLS | -0.30 -0.46 -0.14 -0.20 -0.14 -0.43 | -0.28 | 0/18 |
| TLTQVQGMESHQKNSVA | DLSTRGS | QQYHRLPLS | -0.36 -0.12 -0.33 -0.48 -0.31 0.01 | -0.26 | 0/18 |
| TLTQSVLMESHNKNNVA | DLSTRGS | QQYHRLPLS | 0.02 -0.14 -0.23 -0.30 -0.15 0.02 | -0.13 | 0/18 |